According to publication PMC5799093, “Proceedings of Réanimation 2018, the French Intensive Care Society International Congress” (Annals of Intensive Care, 2018):

System: Klebsiella pneumoniae

O=C(O)c1cn(C2CC2)c2cc(N3CCNCC3)c(F)cc2c1=O [ciprofloxacin]
resistance rate: 68%
